Literature values as cited in US5874481A, “Fluorochemical solutions for the delivery of lipophilic pharmaceutical agents” (priority 1995, dated 1999).

Details: octanol/water; cited from earlier work

For `CC(=O)[C@H]1CC[C@H]2[C@@H]3CCC4=CC(=O)CC[C@]4(C)[C@H]3CC[C@]12C` [^14 C-progesterone, progesterone], the “Log Po/w” value is given as 3.9.
